Amino acid sequences for entries named in this document (tags omitted). Residues count along the entry.
UniProt P37173, 23-166: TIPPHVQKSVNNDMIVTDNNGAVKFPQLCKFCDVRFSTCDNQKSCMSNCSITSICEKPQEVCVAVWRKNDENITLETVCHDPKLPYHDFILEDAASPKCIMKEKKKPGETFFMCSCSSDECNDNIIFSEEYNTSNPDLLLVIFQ

In paper PMC12347602:

Molecular target: recombinant mTGF-β1 (mouse)
Assay: ELISA; indirect ELISA; mTGF-β1 coated at 0.2 µg/mL overnight at 4 °C; serial dilutions of sample 1 h at 37 °C; detection with goat anti-human IgG Fc-HRP

Substance: soluble TGF-β receptor II (TGF-βRII) (from UniProt P37173 23-166)
- EC50: 0.0619 nM
